UUG fidelity – yeast start codon fidelity modulation; actives 0.13% (n = 350,000); activity score, % at 18.7 µM; S. cerevisiae UUG-firefly luciferase reporter, luminescence/redox ratio;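 active = replicate mean at a twofold rise or more, about +100% in these data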;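 note: firefly luciferase made from a UUG start codon reports start codon fidelity; reporter light over untreated wells divided by growth signal over untreated wells; some hits fall short of that in this replicate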
Cneo AK release – Cryptococcus neoformans cell lysis inducers, primary screen, AK release luminescence, single concentration; 0.2% of 360,000 active; AID 651654, 2012; lysis activity, % at 15 µM; C. neoformans lysis, adenylate kinase release luminescence, 4 h; normalised: neutral wells 0, clomiphene wells 100;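 active = mean lysis activity across replicates of at least 80%, whatever share of replicates individually reach that level; inactive = mean lysis activity below 80%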
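Test system: log-phase Cryptococcus neoformans yeast cells; Quantity: yeast cell density of 5 × 10^6 cells/mL; Buffer or medium: YPD; Doses: single compound concentration per well; Timing: 4 h at 37 °C static, read 1 h later; Measured by: AK luminescence; Read-out basis: lysis from increased AK signal; Control set: Clomiphene as positive control.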
E-selectin induc – E-selectin induction in HUVECs, primary screen, imaging, HUVEC, immunofluorescence imaging, single point; P16581; normalized: neutral wells 0, TNF-alpha wells 100; activation, % at 7.58 µM; 0.37% of 260,000 active;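 active = mean E-selectin-positive cell signal at least 10% of the positive control, reached in at least 60% of replicates, without over 20% cell loss; inconclusive = no rule given, readout overlaps actives, possibly toxicity-flagged; inactive = the rest, including those meeting only one limit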
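Test system – human umbilical vein endothelial cells (HUVEC), E-selectin induction · Input – 3,000 HUVEC seeded per well · Buffer or medium – EGM-2, gelatin · Compound dosing – single-point compound dose · Detection – immunofluorescence imaging · Measure – percent E-selectin-positive cells · Controls – TNF-alpha high, DMSO low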
DENV2 CPE rescue – inhibitors of DENV2 cytopathic effect, primary screen, cell-based, plate reader, single concentration; CPE inhibition, % at 9.99 µM; 1.7% of 350,000 active; DENV2-infected cells, cytopathic effect rescue; AID 651640, 2012; in the data active = CPE inhibition above about 20%, passing the limit was not always enough; inconclusive = no clear call, values can overlap the other calls; tested in BHK-21 cells;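 also: 0% = median of neutral control wells and 100% = median of positive control wells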
The depositor's hits bear a star; ? = inconclusive; . = no result given. A selection: hits, their analogues and other compounds. The true share with any hit is near 1.8%.

1. O=C(Nc1ccccc1N1CCOCC1)C1=NN(c2ccccc2)C(=O)CC1
2. COc1ccc(NC(=O)N2CCCCN3[C@H](C2)[C@@H](c2ccc(C4=CCCC4)cc2)[C@@H]3CO)cc1
3. COc1ccc2c3c([nH]c2c1)[C@@H](CO)N(C(=O)C1CCCCC1)CC31CCN(Cc2nccs2)CC1
4. COc1ccc2c3c([nH]c2c1)[C@H](CO)N(C(=O)C1CCC1)CC31CCN(Cc2nccs2)CC1
5. COc1ccc2c3c([nH]c2c1)[C@H](CO)N(C(=O)c1cnccn1)CC31CCN(S(C)(=O)=O)CC1
6. COc1ccc2c3c([nH]c2c1)[C@H](CO)N(Cc1nccs1)CC31CN(C(=O)C2CCCCC2)C1
assay / entry,1,2,3,4,5,6
UUG fidelity,-5,4,.,.,.,.
Cneo AK release,-1,1,.,.,.,.
E-selectin induc,.,.,1,0,0,0
DENV2 CPE rescue,69*,8,5,41*,68*,-8

7. COc1ccc2c3c([nH]c2c1)[C@@H](CO)N(Cc1nccs1)CC31CN(C(=O)C2CCCC2)C1
8. COc1ccc2c3c([nH]c2c1)[C@@H](CO)N(C(=O)c1ccccn1)CC31CN(C(=O)C2CCCC2)C1
9. COc1ccc2c3c([nH]c2c1)[C@H](CO)N(C(=O)c1cnccn1)CC31CN(C(=O)c2cnccn2)C1
10. C[C@@H]1CCCCO[C@H](CN(C)C(=O)c2ccccc2)[C@@H](C)CN([C@H](C)CO)C(=O)c2cc(NC(=O)Nc3ccccc3)ccc2O1
11. COc1cccc(-c2nc(-c3ccccc3)no2)c1
12. CNc1ccccc1C(C)(C)c1cc(-c2cccc(OC)c2)no1
assay / entry,7,8,9,10,11,12
UUG fidelity,.,.,.,9,-38,.
Cneo AK release,.,.,.,1,-6,.
E-selectin induc,0,0,0,.,.,46*
DENV2 CPE rescue,29*,24*,6,3,.,5

13. CCCCNC(=O)CNC(=S)N(CCCN1CCOCC1)Cc1cccs1
14. CCN(CC)CCNC(=O)CNC(=S)N(CCCN1CCOCC1)Cc1cccs1
15. C[C@H](CO)N1C[C@H](C)[C@H](CN(C)C(=O)Nc2cccc3ccccc23)OCCCC[C@H](C)Oc2ccc(NC(=O)C3CCCCC3)cc2C1=O
16. CCC(=O)Nc1ccc2c(c1)OC[C@H](C)N(C(=O)CN(C)C)C[C@@H](C)[C@@H](OC)CN(C)C2=O
17. COc1ccc2c3c(n(C)c2c1)[C@@H](CO)N(CC1CC1)CC31CN(C(=O)Nc2ccccc2)C1
18. O=C(CSc1ccc2nnc(-c3ccccn3)n2n1)Nc1ccccc1
assay / entry,13,14,15,16,17,18
UUG fidelity,-15,-45,-2,8,.,-29
Cneo AK release,-1,-3,2,-1,.,6
E-selectin induc,.,0,2,0,0,0
DENV2 CPE rescue,44*,1,?,-12,3,71*

A different layout for 3 compounds above.
| cpd | canonical_smiles | UUG fidelity | Cneo AK release | E-selectin induc | DENV2 CPE rescue |
| --- | --- | --- | --- | --- | --- |
| 6 | COc1ccc2c3c([nH]c2c1)[C@H](CO)N(Cc1nccs1)CC31CN(C(=O)C2CCCCC2)C1 | . | . | 0 | -8 |
| 7 | COc1ccc2c3c([nH]c2c1)[C@@H](CO)N(Cc1nccs1)CC31CN(C(=O)C2CCCC2)C1 | . | . | 0 | 29* |
| 8 | COc1ccc2c3c([nH]c2c1)[C@@H](CO)N(C(=O)c1ccccn1)CC31CN(C(=O)C2CCCC2)C1 | . | . | 0 | 24* |

(list continues)
19. C[C@@H]1CCCCO[C@H](CN(C)S(=O)(=O)c2ccccc2)[C@@H](C)CN([C@@H](C)CO)C(=O)c2cc(NS(=O)(=O)c3ccc(F)cc3)ccc2O1
20. C[C@@H]1CN([C@H](C)CO)C(=O)c2cc(NS(C)(=O)=O)ccc2O[C@@H](C)CCCCO[C@H]1CN(C)S(=O)(=O)c1ccc(F)cc1
21. C[C@@H]1CCCCO[C@H](CN(C)S(=O)(=O)c2ccccc2)[C@H](C)CN([C@@H](C)CO)C(=O)c2cc(NS(=O)(=O)c3ccc(F)cc3)ccc2O1
22. C[C@@H]1CN([C@@H](C)CO)C(=O)c2cc(NS(C)(=O)=O)ccc2O[C@@H](C)CCCCO[C@H]1CN(C)S(=O)(=O)c1ccc(F)cc1
23. CCOc1cc(N2CCOCC2)c(OCC)cc1NC(=O)CN1CCN(Cc2ccc3c(c2)OCO3)CC1
24. CCOc1cc(N2CCOCC2)c(OCC)cc1NC(=O)Cc1ccc(OC)c(OC)c1
assay / entry,19,20,21,22,23,24
UUG fidelity,.,12,4,10,.,-2
Cneo AK release,.,-1,-1,1,.,-2
E-selectin induc,0,0,0,0,0,.
DENV2 CPE rescue,25*,27*,-4,67*,29*,.

25. CCc1nn(CCCC(=O)N2CCC(C)CC2)c(=O)c2cc3occc3n12
26. CCc1nn(CCCC(=O)N2CCN(c3ccc(OC)cc3)CC2)c(=O)c2cc3occc3n12
27. CC(=O)N1CCCCN2[C@H](CO)[C@H](c3ccc(-c4cccc(C)c4)cc3)[C@H]2C1
28. COCC#Cc1cnc2c(c1)C(=O)N([C@H](C)CO)C[C@H](C)[C@@H](CN(C)Cc1ccc3c(c1)OCO3)O2
29. C[C@@H]1CN([C@@H](C)CO)C(=O)c2cc(NC(=O)Nc3ccc(C(F)(F)F)cc3)ccc2O[C@H]1CN(C)Cc1ccc(C(F)(F)F)cc1
assay / entry,25,26,27,28,29
UUG fidelity,-15,.,1,-3,-6
Cneo AK release,0,.,51,5,-2
E-selectin induc,.,141*,1,1,1
DENV2 CPE rescue,6,8,-5,-10,-21

Screening results from PubChem BioAssay.
